From PubChem
A549 tox-1 = counter-screen for Nrf2 inhibitors: cytotoxicity in A549 cells. A549 ARE-Fluc cells, CellTiter-Fluor viability, 18-24 h. 0.16% of 390,000 active. AID 504648. Potency, µM (highest dose often 46 µM), inactives show top-dose activity change, negative = cytotoxicity, hits mostly inhibitors; further: potency means the concentration at half of the fitted maximal effect; on the % scale 0 is the no-effect control and ±100 the full control effect
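A549 ARE-Fluc cells in 5% FBS OPTI-MEM, 5000 cells/well, rested 2 h then exposed to compounds in concentration-response for 18-24 h at 37 °C. Viability by CellTiter-Fluor fluorescence (Ex 405/Em 525) after 30 min; luciferase luminescence (BugLite, 15 min, RT) read afterwards.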
Nrf2 activator = activators of Nrf2 (ARE) signaling; 0.31% of 410,000 active; Potency, µM (titrated, usually from 46.1 µM), without a hit: at the top dose activation, most hits filed as activators; AREc32 ARE-luciferase reporter (MCF7-derived line), luminescence, 24 h; further: potency means the concentration at half of the fitted maximal effect; % of control where 0% means no effect; nearly all actives have a fitted effect of over 65% in size
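ARE activation measured as luciferase luminescence (Steady-Glo, 30 min RT) in AREc32_Fluc cells after 24 hr compound exposure at 37 deg C, 5% CO2; cells seeded overnight at 1000/well in OPTI-MEM, 5% FBS.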
Nrf2 block = Nrf2 pathway inhibition | 2.1% of 360,000 active | Potency, µM (top dose mostly 46 µM), without a hit: at the top dose activity change, negative = inhibition, usual class: inhibitors | A549 ARE-Fluc reporter, luciferase luminescence, 18-24 h | AID 504444; further: potency means the concentration at half of the fitted maximal effect; on the % scale 0 is the no-effect control and ±100 the full control effect; nearly all actives have a fitted effect of over 60% in size
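Nrf2 activity is the BugLite luminescence, read 15 min after reagent at room temperature, following CellTiter-Fluor cytotoxicity readout (30 min, 37C). Compound titrations were applied for 18-24 h to 5000 A549 ARE_Fluc cells/well in 5% FBS OPTI-MEM.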
ClpP mod = qHTS Assay for Activators of ClpP; Potency, µM (titrated, usually from 57.5 µM), inactives show at the top dose activity change, negative = active; ATP-dependent Clp protease proteolytic subunit (Bacillus subtilis (strain 168)), P80244; 1.9% of 340,000 active; purified B. subtilis ClpP, FRET peptide cleavage, 20 min; active means well fitted falling curve with a large enough effect; inconclusive means small, poorly fitted or top-dose-only effect; inactive means no such curve, though single readings can be large or run the other way; further: potency means the concentration at half of the fitted maximal effect; the source files actives as falling curves though it sought activators and does not explain the sign; nearly all actives have a fitted effect of over 65% in size
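Buffer: 100 mM Tris/HCl pH8, 100 mM KCl, 0.05% low protease BSA, 2.5% glycerol, 0.01% Tween-20. ClpP 10 microg/mL final; 20 min RT; delta FRET normalized to ADEP and DMSO controls.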
miR-21 reporter = miR-21 reporter, rising signal | AID 2288 | HeLa miR-21 FLuc reporter, luciferase, 48 h | 340,000 tested, under 10 active | Potency, µM (doses to about 38.3 µM), for inactives: at the top dose reporter change, positive = more light; active = well fitted rising curve with a large enough effect; inconclusive = small, poorly fitted or top-dose-only effect; inactive = no such curve, though single readings can be large or run the other way;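 note: % of control where 0% means no effect; miR-21 action dims this reporter so a rising signal means less miR-21 action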
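Luminescence from a firefly luciferase reporter carrying a miR-21 binding site downstream, stably expressed under a CMV promoter in HeLa cells that make miR-21 endogenously, reports miRNA modulation after 48 h compound exposure up to approximately 40uM final.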
p53 reactivator = restores transcriptional activity of mutant p53; H1299 p53-A138V BP100-luciferase reporter, luminescence, 24 h; Potency, µM (titrated, usually from 92.2 µM), without a hit: top-dose activity change, positive = activation, actives largely listed as activators; 0.063% of 320,000 active; AID 504706; further: potency means the concentration at half of the fitted maximal effect; % of control where 0% means no effect; nearly all actives have a fitted effect of over 45% in size
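p53-null H1299 cells stably carrying temperature-sensitive p53-A138V and a BP100-luciferase reporter were pinned with compounds (4-point, 1:5 series) and held 24 hrs at 37 deg C. Luminescence was read 10 min after detection reagent.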
FLuc enzyme inh = counter-screen for Nrf2 inhibitors: firefly luciferase enzyme inhibition; shares compounds with Nrf2 block; purified firefly luciferase, luminescence inhibition; Potency, µM (doses to about 57.5 µM), without a hit: at the highest dose activity change, negative = inhibition, actives largely listed as inhibitors; 4% of 1,400 active; AID 720522; further: potency means the concentration at half of the fitted maximal effect; on the % scale 0 is the no-effect control and ±100 the full control effect; nearly all actives have a fitted effect of over 65% in size
A549 tox-2 = A549 cytotoxicity, Nrf2 inhibitor counterscreen; shares compounds with Nrf2 block; A549 ARE-Fluc cells, cytotoxicity counterscreen; Potency, µM (series often up to 46.1 µM), for inactives: top-dose activity change, negative = cytotoxicity, most hits filed as inhibitors; 2% of 1,400 active; AID 720523;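 further: potency means the concentration at half of the fitted maximal effect; cells exposed to compounds for 18 to 24 hours; on the % scale 0 is the no-effect control and ±100 the full control effect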
Nrf2 ARE inh = confirmation of Nrf2 inhibitors in A549 ARE reporter cells; shares compounds with Nrf2 block; A549 ARE-firefly luciferase reporter, luminescence; Potency, µM (top dose mostly 46.1 µM), for the others: at the highest dose activity change, negative = inhibition, most hits filed as inhibitors; 74% of 1,400 active; further: potency means the concentration at half of the fitted maximal effect; on the % scale 0 is the no-effect control and ±100 the full control effect; nearly all actives have a fitted effect of over 65% in size
An asterisk follows results filed as active; ? = inconclusive; / = not tested or not shown. In the library only some 3.7% were active in any assay of this set; here they are far more common. Unless noted, the call rests on the fitted dose curve; in most records, active means well fitted curve in the direction sought with a large enough effect; inconclusive means small, poorly fitted or top-dose-only effect, or another doubt; inactive means no such curve, though single readings can be large; an effect the other way counts as inactive or inconclusive.

Abbreviations – A = A549 tox-1; B = Nrf2 activator; C = Nrf2 block; D = ClpP mod; E = miR-21 reporter; F = p53 reactivator; G = FLuc enzyme inh; H = A549 tox-2; I = Nrf2 ARE inh
[1] O=C(O)CCSc1nnc(-c2ccc(Cl)cc2Cl)o1
  A: -4% | B: -4% | C: 0.058µM* | D: -5% | E: ? | F: / | G: 3µM* | H: 0% | I: 0.18µM*
[2] O=NNc1nc2ccccc2n1Cc1ccccc1
  A: ? | B: 0% | C: 6.5µM* | D: -1% | E: ? | F: / | G: -20% | H: -24% | I: 6.5µM*
[3] C[C@H]1CCC/C=C/[C@@H]2C[C@H](O)C[C@H]2[C@H](O)[C@H](S(=O)c2ccc(O)cc2)CC(=O)O1 (stereo not given in full)
  A: ? | B: 0% | C: 0.26µM* | D: 1% | E: / | F: / | G: 1% | H: ? | I: 0.52µM*
[4] COc1ccc(OC)c(CCNC(=O)C(C)n2nc(C)c3c(C)n(-c4ccccc4)nc3c2=O)c1 (stereo not given)
  A: 0% | B: 0% | C: -14% | D: -7% | E: 10% | F: -2% | G: / | H: / | I: /
[5] COc1ccc(OC)c(CCNC(=O)C(C)n2nc(C)c3c(C)n(-c4ccc(C)cc4)nc3c2=O)c1 (stereo not given)
  A: ? | B: -1% | C: 6.5µM* | D: -1% | E: ? | F: -6% | G: -1% | H: ? | I: 3.7µM*
[6] CCOc1cc(/C=C(\C#N)C(=O)Nc2ccccc2C(=O)O)ccc1OC(=O)c1ccc(C)cc1
  A: -2% | B: 5% | C: 2.1µM* | D: / | E: -4% | F: ? | G: ? | H: -1% | I: 4.6µM*
[7] COc1ccc(/C=C(/C#N)C(=O)Nc2ccccc2C)cc1C(=O)O
  A: 0% | B: 3% | C: -15% | D: 4% | E: -2% | F: 0% | G: / | H: / | I: /
[8] COC(=O)c1ccc(NC(=O)CC2C(=O)N(c3ccccc3)C(=O)N2Cc2ccc(F)cc2)cc1 (stereo not given)
  A: -7% | B: 8% | C: 21% | D: -2% | E: 7% | F: / | G: / | H: / | I: /
[9] COc1ccc2c(c1)CCc1c(C(=O)Nc3c(C)nn(Cc4ccc(Cl)c(Cl)c4)c3C)noc1-2
  A: -6% | B: -1% | C: 4.6µM* | D: -8% | E: -8% | F: / | G: 0% | H: -9% | I: 9.2µM*
[10] CCOc1cc(OCC)cc(C(=O)N2CCC[C@H]2C(=O)N2CCC[C@H]2C(=O)NCc2cccc(OC)c2)c1
  A: / | B: 1% | C: / | D: 1% | E: / | F: / | G: / | H: / | I: /
[11] CC(=O)Nc1ccc(S(=O)(=O)Nc2ccc(Cc3ccncc3)cc2)cc1
  A: 1% | B: 0% | C: ? | D: / | E: 15% | F: -2% | G: / | H: / | I: /
[12] CC(C)(C)c1ccc(S(=O)(=O)Nc2ccc(Cc3ccncc3)cc2)cc1
  A: ? | B: 5% | C: 9.2µM* | D: -3% | E: -2% | F: ? | G: -3% | H: ? | I: 0.021µM*
[13] CC(O)(c1cccc(F)c1)c1nc(-c2ccc(S(C)(=O)=O)cc2)cs1 (stereo not given)
  A: / | B: 4% | C: / | D: -3% | E: / | F: / | G: / | H: / | I: /
[14] Cn1nc(C(C)(C)C)cc1C(=O)NCc1cc(F)cc2c1OCOC2
  A: -2% | B: 0% | C: ? | D: -1% | E: ? | F: -1% | G: -1% | H: -9% | I: 3.7µM*
[15] Cc1ccc2c(c1)c(C)cc[n+]2Cc1ccccc1
  A: -6% | B: 0% | C: ? | D: -26% | E: 28% | F: 1% | G: / | H: / | I: /
[16] COc1ccc2c(c1)c(C)cc[n+]2Cc1ccccc1
  A: -18% | B: -1% | C: 6.5µM* | D: 4% | E: 28% | F: / | G: -1% | H: 0% | I: 10µM*
[17] CC(C)N(C)c1ncnc2c1ncn2[C@H]1CN(Cc2ccc(Cl)cc2)C[C@@H](CO)O1
  A: / | B: 3% | C: / | D: 1% | E: / | F: / | G: / | H: / | I: /

In the list so far, 2 have a tert-butyl group:
Abbreviations – A = A549 tox-1; B = Nrf2 activator; C = Nrf2 block; D = ClpP mod; E = miR-21 reporter; F = p53 reactivator; G = FLuc enzyme inh; H = A549 tox-2; I = Nrf2 ARE inh
[12] CC(C)(C)c1ccc(S(=O)(=O)Nc2ccc(Cc3ccncc3)cc2)cc1
  A: ? | B: 5% | C: 9.2µM* | D: -3% | E: -2% | F: ? | G: -3% | H: ? | I: 0.021µM*
[14] Cn1nc(C(C)(C)C)cc1C(=O)NCc1cc(F)cc2c1OCOC2
  A: -2% | B: 0% | C: ? | D: -1% | E: ? | F: -1% | G: -1% | H: -9% | I: 3.7µM*
